{"sequences": {"note": "The chains behind the UniProt entries cited, without tags or fusion partners.", "UniProt P19643, whole entry": "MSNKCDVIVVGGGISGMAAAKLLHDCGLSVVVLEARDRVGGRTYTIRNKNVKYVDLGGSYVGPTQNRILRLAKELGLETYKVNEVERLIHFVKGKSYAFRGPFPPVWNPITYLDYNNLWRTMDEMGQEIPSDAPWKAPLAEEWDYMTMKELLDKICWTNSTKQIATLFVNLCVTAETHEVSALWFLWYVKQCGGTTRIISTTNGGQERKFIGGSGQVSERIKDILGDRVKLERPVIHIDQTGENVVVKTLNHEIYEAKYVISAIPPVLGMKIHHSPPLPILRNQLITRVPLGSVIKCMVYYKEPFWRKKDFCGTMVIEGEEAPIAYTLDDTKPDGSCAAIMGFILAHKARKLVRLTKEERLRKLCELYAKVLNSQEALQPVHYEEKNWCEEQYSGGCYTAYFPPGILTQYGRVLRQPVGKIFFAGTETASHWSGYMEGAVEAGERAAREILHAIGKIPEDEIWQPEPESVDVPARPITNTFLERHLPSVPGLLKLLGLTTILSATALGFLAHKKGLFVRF"}, "source": "ChEMBL document CHEMBL1131118", "about": "“Inhibition of monoamine oxidase-B by condensed pyridazines and pyrimidines: effects of lipophilicity and structure-activity relationships” (J Med Chem, 1998)", "biological_target": "Amine oxidase [flavin-containing] B (Rattus norvegicus, UniProt P19643)", "assay": "Inhibitory activity against Monoamine oxidase B from rat brain mitochondria"}
{"smiles": "Cc1cc2c(nn1)-c1ccccc1C2=O", "values": [{"measurement": "IC50", "result": 75.9, "unit": "µM"}]}
